From patent US20220193133A1 (CENTURY THERAPEUTICS, published 2022) come the findings set out here.

The target in the assay is 9G8_M_GFP CAR. Kind of assay: flow cytometry, CAR Jurkat cells + 10 ug/mL biotinylated lysozyme, streptavidin-APC, % positive cells. (In flow cytometry, cells or beads pass a laser one at a time.)

B1: human lysozyme (enzyme, UniProt P61626 19-148, looked up)
chain: KVFERCELARTLKRLGMDGYRGISLANWMCLAKWESGYNTRATNYNAGDRSTDYGIFQINSRYWCNDGKTPGAVNACHLSCSALLQDNIADAVACAKRVVRDPQGIRAWVAWRNRCQNRDVRQYVQGCGV
modifications: biotinylated
notes: also called human lysozyme protein
As for B1, the binding result was “no binding (tested: 10 ug/mL)”.
